The values that follow come from patent US20030069295A1, “Use of histamine H3 receptor inverse agonists for the control of appetite and treatment of obesity” (Gliatech, Inc., priority 2001, published 2003).

Protein sequences, listed by entry. Tags and fused reporters are not part of them. Lines headed by an entry give the natural chain unless they say otherwise; changes in a name come on top.
UniProt Q9QYN8: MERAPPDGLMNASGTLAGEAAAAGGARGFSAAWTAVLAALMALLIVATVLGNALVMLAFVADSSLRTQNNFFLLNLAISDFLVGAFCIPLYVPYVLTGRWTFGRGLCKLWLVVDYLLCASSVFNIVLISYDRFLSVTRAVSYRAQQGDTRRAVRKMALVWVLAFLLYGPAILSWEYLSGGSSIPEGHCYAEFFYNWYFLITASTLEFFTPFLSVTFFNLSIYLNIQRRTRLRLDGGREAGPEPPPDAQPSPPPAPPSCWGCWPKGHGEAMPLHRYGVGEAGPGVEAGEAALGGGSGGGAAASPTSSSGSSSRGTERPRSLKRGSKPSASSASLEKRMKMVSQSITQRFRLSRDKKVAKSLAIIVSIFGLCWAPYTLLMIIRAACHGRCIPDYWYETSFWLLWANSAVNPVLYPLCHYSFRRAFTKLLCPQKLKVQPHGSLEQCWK

This test deals with T1, Histamine H3 receptor (Rattus norvegicus, UniProt Q9QYN8).
T1 construct: The cerebral cortical tissues were harvested and frozen on dry ice; from tissue; host or cells: cerebral cortex membranes of male Sprague-Dawley rats
Description: Histamine H3 receptor binding analysis, [3H]-Nα-methylhistamine competition in rat cerebral cortical membranes, with and without GTPγS.

Each structure is given as a SMILES string.

Take `O=C(CCCCC1CCCCC1)N1CCC(c2c[nH]cn2)CC1` [Compound 5, 4-(N-(5-cyclohexylpentan-1-one-1-yl)piperidin-4-yl)imidazole]: the Ki (commonly the dissociation constant of the complex between target and ligand, obtained from inhibition or displacement) was found to be 0.0367 µM (GTPγS-treated receptor preparation (G-protein uncoupled)); 0.129 µM (untreated receptor preparation (mixture of coupled and uncoupled H3 receptors)). For the same compound, the “Ki Ratio (−/+)” value (Ki without GTPγS / Ki with GTPγS) is 3.5.
